Values quoted from earlier work, collected in US20110293643A1 (published 2011).

Test system: rat
Conditions: rat lung transplantation; cited from earlier work

In the case of `NC(=O)C1=C(O)C[C@@H]2C[C@@H]3Cc4cccc(O)c4C(=O)C3=C(O)[C@]2(O)C1=O` [COL-3], the “delayed type hypersensitivity responses to donor antigens and type V collagen” value is listed as “suppressed delayed type hypersensitivity” and the rejection pathology is listed as “did not prevent rejection pathology”.
